Source: paper PMC8857812, “In vitro evaluation of the inhibition potential of echinacoside on human cytochrome P450 isozymes” (BMC Complementary Medicine and Therapies, 2022)

By UniProt entry, the sequences of proteins in these tests, tags left out. Where a name states a change or a piece, a line headed by the entry shows the natural chain unless it says otherwise.
UniProt P33261, whole entry: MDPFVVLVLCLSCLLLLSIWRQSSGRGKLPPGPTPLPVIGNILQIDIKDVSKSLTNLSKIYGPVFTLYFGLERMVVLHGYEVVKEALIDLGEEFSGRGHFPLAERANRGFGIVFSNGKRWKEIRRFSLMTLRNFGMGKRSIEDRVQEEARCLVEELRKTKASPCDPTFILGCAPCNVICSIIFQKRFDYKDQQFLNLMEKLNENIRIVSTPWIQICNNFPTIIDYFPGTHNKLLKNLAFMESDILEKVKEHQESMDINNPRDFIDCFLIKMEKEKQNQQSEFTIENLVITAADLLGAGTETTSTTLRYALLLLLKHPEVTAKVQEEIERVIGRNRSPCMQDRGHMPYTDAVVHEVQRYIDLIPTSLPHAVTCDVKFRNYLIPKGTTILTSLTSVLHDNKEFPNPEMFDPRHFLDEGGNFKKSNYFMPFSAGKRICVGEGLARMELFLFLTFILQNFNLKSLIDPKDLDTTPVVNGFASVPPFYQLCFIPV
UniProt P08684, whole entry: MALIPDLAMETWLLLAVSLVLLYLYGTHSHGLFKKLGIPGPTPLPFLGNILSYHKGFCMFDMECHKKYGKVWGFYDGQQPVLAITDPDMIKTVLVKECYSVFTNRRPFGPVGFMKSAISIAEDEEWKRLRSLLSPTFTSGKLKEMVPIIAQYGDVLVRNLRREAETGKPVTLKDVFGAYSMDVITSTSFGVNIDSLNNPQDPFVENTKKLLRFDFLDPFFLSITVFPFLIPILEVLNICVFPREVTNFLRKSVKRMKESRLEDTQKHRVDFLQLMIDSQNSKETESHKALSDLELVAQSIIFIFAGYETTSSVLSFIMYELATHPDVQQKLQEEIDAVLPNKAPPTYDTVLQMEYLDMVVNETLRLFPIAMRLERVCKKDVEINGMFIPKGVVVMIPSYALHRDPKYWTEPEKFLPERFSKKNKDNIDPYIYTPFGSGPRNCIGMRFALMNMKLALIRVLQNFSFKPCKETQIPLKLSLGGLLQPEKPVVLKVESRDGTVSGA
UniProt P05177, whole entry: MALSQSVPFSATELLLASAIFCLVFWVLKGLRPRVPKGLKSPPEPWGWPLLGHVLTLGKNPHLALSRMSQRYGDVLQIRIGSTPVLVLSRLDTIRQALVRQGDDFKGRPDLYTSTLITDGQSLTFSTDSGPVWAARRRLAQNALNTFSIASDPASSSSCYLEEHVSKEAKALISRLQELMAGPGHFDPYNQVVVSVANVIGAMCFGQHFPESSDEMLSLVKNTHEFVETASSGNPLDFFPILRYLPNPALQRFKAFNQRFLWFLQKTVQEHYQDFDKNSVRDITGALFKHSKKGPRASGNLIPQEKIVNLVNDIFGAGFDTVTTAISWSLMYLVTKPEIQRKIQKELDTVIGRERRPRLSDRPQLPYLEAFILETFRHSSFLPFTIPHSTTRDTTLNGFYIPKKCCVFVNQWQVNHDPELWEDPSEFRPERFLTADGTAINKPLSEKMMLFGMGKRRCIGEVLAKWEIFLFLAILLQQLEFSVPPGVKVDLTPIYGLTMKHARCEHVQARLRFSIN
UniProt P05181: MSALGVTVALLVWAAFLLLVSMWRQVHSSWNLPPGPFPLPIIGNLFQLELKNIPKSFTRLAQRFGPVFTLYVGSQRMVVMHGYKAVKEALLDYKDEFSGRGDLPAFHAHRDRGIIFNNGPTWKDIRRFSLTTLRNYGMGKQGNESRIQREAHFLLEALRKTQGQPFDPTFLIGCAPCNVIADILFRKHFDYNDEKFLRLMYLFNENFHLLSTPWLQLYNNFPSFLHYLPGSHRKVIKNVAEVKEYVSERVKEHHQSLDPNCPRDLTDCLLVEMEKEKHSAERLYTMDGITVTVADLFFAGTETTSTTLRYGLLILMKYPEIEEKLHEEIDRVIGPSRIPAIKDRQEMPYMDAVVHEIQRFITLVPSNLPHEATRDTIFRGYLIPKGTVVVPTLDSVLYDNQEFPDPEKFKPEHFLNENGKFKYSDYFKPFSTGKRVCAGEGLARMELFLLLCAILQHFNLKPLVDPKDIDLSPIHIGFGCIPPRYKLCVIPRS

How the values were obtained:
[1] = design: method as in PMID 29783690; conditions: after echinacea tablet ingestion; cited from earlier work
CYP2C19 [2] = target: T1, CYP2C19 (Homo sapiens, UniProt P33261); experiment: Inhibition kinetics of CYP2C19 in HLMs (Lineweaver-Burk plots); assay type: in vitro ADME; conditions: secondary plot of Lineweaver-Burk
T1 construct: tissue PrimeTox M10000.201800; host or cells: pooled human liver microsomes (50 donors)
Procedure: (§1) To evaluate the kinetic mechanisms of ECH towards CYP1A2, CYP2E1, and CYP2C19, the incubations were conducted using different substrate concentrations and various ECH concentrations with a two-step incubation scheme, and the relative remaining activities were determined.
(§2) A one enzyme Michaelis Menten model with competitive substrate inhibition: V=VmaxS/Km1+I/KI+Sa
(§3) Michaelis-Menten model with uncompetitive substrate inhibition: V=VmaxS/Km+S1+I/KIKi
(§4) I: the concentration of the ECH; KI: the inhibition constant; Kinact: inactivation rate constant; S: the concentration of the substrate: Km:
(§5) The inhibitory effects of ECH on CYP enzymes are presented graphically as Lineweaver-Burk’s plots indicating Ki values.

CYP3A4 = target: T2, CYP3A4 (Homo sapiens, UniProt P08684); experiment: CYP3A4 inhibition in HLMs, testosterone 6β-hydroxylation probe reaction; assay type: in vitro ADME; conditions: pooled HLMs; ECH 0-100 μM; substrate testosterone 50 μM; read-out: IC50 of CYP3A4 enzyme activity
T2 construct: tissue PrimeTox M10000.201800; host or cells: pooled human liver microsomes (50 donors)
Procedure: (§6) Eight positive controls were used for different CYPs: 10 μM furafylline for CYP1A2, 50 μM clomethiazole for CYP2E1, 50 μM tranylcypromine for CYP2C19, 1 μM ketoconazole for CYP3A4, 10 μM tranylcypromine for CYP2A6, 5 μM montelukast for CYP2C8, 10 μM sulfaphenazole for CYP2C9, and 10 μM quinidine for CYP2D6. Phenotyping experiments were conducted by probe reactions of eight HLMs CYPs: CYP1A2 (by phenacetin), 2E1(by chlorzoxazone), 2C19 (by S-mephenytoin), 3A4 (by testosterone), 2A6 (by coumarin), 2C8 (by paclitaxel), 2C9 (by diclofenac), 2D6 (by dextromethorphan) to study the effect of ECH in vitro (Table 1). […] The reaction was initiated by adding a newly prepared NADPH generating system, maintained at 37 °C for 30 min, and then terminated by the addition of acetonitrile. The incubation conditions were optimized to assure that the reaction was linear with time and protein concentration. […]
(§7) The quantification for the corresponding metabolites was performed using a validated single LC/MS/MS run at an Ultimate 3000 HPLC system and a TSQ Quantis™ triple quadrupole mass spectrometer equipped with a heated electrospray ionization (ESI) source (Thermo Fisher, USA). […]
(§8) Briefly, reaction mixtures containing HLMs, substrate and protein were incubated with a series of ECH solutions with different concentrations (0, 2.5, 5, 10, 25, 50, 100 μM). […] IC50 values were calculated by Graphpad Prism 7.

CYP1A2 [3] = target: T3, CYP1A2 (Homo sapiens, UniProt P05177); experiment: Inhibition kinetics of CYP1A2 in HLMs (Lineweaver-Burk plots); assay type: in vitro ADME; conditions: secondary plot of Lineweaver-Burk
T3 construct: tissue PrimeTox M10000.201800; host or cells: pooled human liver microsomes (50 donors)
Procedure: as §1, §2, §3, §4, §5

CYP2E1 [4] = target: T4, CYP2E1 (Homo sapiens, UniProt P05181); experiment: Inhibition kinetics of CYP2E1 in HLMs (Lineweaver-Burk plots); assay type: in vitro ADME; conditions: secondary plot of Lineweaver-Burk
T4 construct: tissue PrimeTox M10000.201800; host or cells: pooled human liver microsomes (50 donors)
Procedure: as §1, §2, §3, §4, §5

CYP2E1 [5] = target: T4, CYP2E1; experiment: CYP2E1 inhibition in HLMs, chlorzoxazone 6-hydroxylation probe reaction; assay type: in vitro ADME; conditions: pooled HLMs; ECH 0-100 μM; substrate chlorzoxazone 120 μM; read-out: IC50 of CYP2E1 enzyme activity
Procedure: as §6, §7, §8

CYP2C19 [6] = target: T1, CYP2C19; experiment: CYP2C19 inhibition in HLMs, S-mephenytoin 4-hydroxylation probe reaction; assay type: in vitro ADME; conditions: pooled HLMs; ECH 0-100 μM; substrate S-mephenytoin 100 μM; read-out: IC50 of CYP2C19 enzyme activity
Procedure: as §6, §7, §8

CYP1A2 [7] = target: T3, CYP1A2; experiment: CYP1A2 inhibition in HLMs, phenacetin O-deethylation probe reaction; assay type: in vitro ADME; conditions: pooled HLMs; ECH 0-100 μM; substrate phenacetin 40 μM; read-out: IC50 of CYP1A2 enzyme activity
Procedure: as §6, §7, §8

In the case of Echinacoside, the “identification in human plasma samples” value [1] is given as “could not be identified”, the Ki (CYP2C19 [2]) is given as 4.41 µM and the IC50 (CYP3A4) is given as 55.4 µM. It also gave a Ki (CYP1A2 [3]) of 10.6 µM, a Ki (CYP2E1 [4]) of 9.67 µM and an IC50 (CYP2E1 [5]) of 19.2 µM. It also gave an IC50 (CYP2C19 [6]) of 8.7 µM and an IC50 (CYP1A2 [7]) of 21.2 µM.
